What was measured:
[1] = biological target: T1, P2X7 (Homo sapiens (Human), UniProt Q99572); assay: Ca2+ flux (FLIPR) in 1321N1 cells expressing recombinant human P2X7; assay type: cell-based; details: FLIPR (human) IC50 (μM), Table 2, additional runs; 250 μM BzATP
[2] = biological target: T2, rat P2X7 (Rattus norvegicus (Rat), UniProt Q64663); assay: Ca2+ flux (FLIPR) in 1321N1 cells expressing recombinant rat P2X7; assay type: cell-based; details: FLIPR (rat) IC50 (μM), Table 2, additional runs; 250 μM BzATP
[3] = biological target: T1, P2X7; assay: Radioligand binding, recombinant human P2X7-1321N1 cell membranes, tritiated A-804598
Description: P2X7 Antagonism in Recombinant Human P2X7 Cells or Recombinant Rat P2X7 Cells: (a) Ca^2+ Flux and (b) Radioligand Binding
human or rat P2X7-1321N1 cells were collected and frozen @−80° C. On the day of the experiment, cell membrane preparations were made according to standard published methods. The total assay volume was 100 μl:10 μl compound (10×)+(b) 40 μl tracer (2.5×)+50 μl membrane (2×). The tracer used for the assay was tritiated A-804598. The compound can be prepared as described in the literature. […] The assay was terminated by filtration (GF/B filters pre-soaked with 0.3% PEI) and washed with washing buffer (Tris-HCl 50 mM). The IC50 generated in the binding assay was corrected for tracer concentration and affinity of the tracer to derive at the affinity (Ki) of the test compounds. […] Data are analyzed and graphed on Graphpad Prism 5.

Chains of the proteins cited; added tags and fusions are not shown. Lines headed by an entry give the natural chain unless they say otherwise; changes in a name come on top.
UniProt Q99572: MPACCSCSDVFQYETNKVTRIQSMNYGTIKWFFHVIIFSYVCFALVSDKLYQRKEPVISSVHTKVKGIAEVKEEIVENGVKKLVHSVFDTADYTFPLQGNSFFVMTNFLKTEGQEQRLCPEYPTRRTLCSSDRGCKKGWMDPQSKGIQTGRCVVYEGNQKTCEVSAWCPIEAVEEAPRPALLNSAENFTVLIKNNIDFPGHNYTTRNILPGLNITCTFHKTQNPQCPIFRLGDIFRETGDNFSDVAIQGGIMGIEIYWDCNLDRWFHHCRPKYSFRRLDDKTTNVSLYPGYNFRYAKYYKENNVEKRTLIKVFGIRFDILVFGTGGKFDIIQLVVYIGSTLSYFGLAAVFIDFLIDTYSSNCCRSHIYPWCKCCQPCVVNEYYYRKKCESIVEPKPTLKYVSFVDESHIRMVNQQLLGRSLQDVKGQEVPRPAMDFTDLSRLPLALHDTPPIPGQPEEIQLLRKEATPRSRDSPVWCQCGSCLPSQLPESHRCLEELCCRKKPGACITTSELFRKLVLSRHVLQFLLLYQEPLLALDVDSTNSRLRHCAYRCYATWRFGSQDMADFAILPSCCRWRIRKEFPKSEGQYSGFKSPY
UniProt Q64663: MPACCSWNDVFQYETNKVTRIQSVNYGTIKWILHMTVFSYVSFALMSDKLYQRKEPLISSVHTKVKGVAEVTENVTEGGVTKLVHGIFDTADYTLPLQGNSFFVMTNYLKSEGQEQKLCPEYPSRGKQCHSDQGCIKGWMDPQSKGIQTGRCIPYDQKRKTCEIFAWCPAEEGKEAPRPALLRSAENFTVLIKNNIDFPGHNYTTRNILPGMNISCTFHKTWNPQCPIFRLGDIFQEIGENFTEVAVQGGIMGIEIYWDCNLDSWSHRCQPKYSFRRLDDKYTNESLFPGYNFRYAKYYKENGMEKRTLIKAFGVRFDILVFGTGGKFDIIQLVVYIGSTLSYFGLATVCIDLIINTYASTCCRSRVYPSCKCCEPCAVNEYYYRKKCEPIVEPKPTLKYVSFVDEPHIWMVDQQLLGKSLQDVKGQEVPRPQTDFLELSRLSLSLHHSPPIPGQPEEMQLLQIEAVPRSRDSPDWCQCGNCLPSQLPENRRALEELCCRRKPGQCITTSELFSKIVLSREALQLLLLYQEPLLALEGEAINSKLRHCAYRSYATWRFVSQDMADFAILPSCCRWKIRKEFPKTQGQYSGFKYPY

[4] = biological target: T2, rat P2X7; assay: Radioligand binding, recombinant rat P2X7-1321N1 cell membranes, tritiated A-804598

Compound | IC50 [1] [µM] | IC50 [2] [µM] | Ki [3] [nM] | Ki [4] [nM]
O=C(c1cccc(C(F)(F)F)c1Cl)N1[C@H]2CCC[C@@H]1c1nnc(-c3ccc(F)cn3)n1C2 (single isomer, unassigned) [Example 11, (6S*,10R*)-11-{[2-Chloro-3-(trifluoromethyl)phenyl]carbonyl}-3-(5-fluoropyridin-2-yl)-5,6,7,8,9,10-hexahydro-6,10-epimino[1,2,4]triazolo[4,3-a]azocine] | 6.12 |  |  | 
O=C(c1cccc(C(F)(F)F)c1Cl)N1[C@H]2CCC[C@@H]1c1nnc(-c3ccccn3)n1C2 (single isomer, unassigned) [Example 32, (6S*,10R*)-11-{[2-Chloro-3-(trifluoromethyl)phenyl]carbonyl}-3-pyridin-2-yl-5,6,7,8,9,10-hexahydro-6,10-epimino[1,2,4]triazolo[4,3-a]azocine] | 1.51 | 2.11 |  | 
O=C(c1cccc(C(F)(F)F)c1Cl)N1[C@H]2CCC[C@@H]1c1nnc(-c3ccccn3)n1C2 (single isomer, unassigned) [Example 33, (6R*,10S*)-11-{[2-Chloro-3-(trifluoromethyl)phenyl]carbonyl}-3-pyridin-2-yl-5,6,7,8,9,10-hexahydro-6,10-epimino[1,2,4]triazolo[4,3-a]azocine] | 0.0115 | 0.0078 | 11.3 | 2.5

From patent US9540388B2, “P2X7 modulators” (Janssen Pharmaceutica NV, priority 2013, dated 2017)
